What was measured:
[1] = biological target: human D1 dopamine receptor (clone HGR213-1) (Homo sapiens, UniProt P21728); experiment: biochemical; assay type: binding; set-up: expressed in transfected cells; host or cells: monkey kidney COS-7 cells, transient, PBC12BI
[2] = biological target: human D1 dopamine receptor (clone HGL26) (Homo sapiens, UniProt P21728); experiment: Competition for [^125 I]SCH23982 binding to membranes of COS-7 cells expressing HGL26; set-up: a 2.3 kb EcoRI-XbaI restriction fragment containing the open reading frame was subcloned into the expression vector pCMV5; expressed in transfected cells; host or cells: African green monkey kidney COS-7 cells, transient, pCMV5

The chains behind the UniProt entries cited, without tags or fusion partners.
UniProt P21728, whole entry: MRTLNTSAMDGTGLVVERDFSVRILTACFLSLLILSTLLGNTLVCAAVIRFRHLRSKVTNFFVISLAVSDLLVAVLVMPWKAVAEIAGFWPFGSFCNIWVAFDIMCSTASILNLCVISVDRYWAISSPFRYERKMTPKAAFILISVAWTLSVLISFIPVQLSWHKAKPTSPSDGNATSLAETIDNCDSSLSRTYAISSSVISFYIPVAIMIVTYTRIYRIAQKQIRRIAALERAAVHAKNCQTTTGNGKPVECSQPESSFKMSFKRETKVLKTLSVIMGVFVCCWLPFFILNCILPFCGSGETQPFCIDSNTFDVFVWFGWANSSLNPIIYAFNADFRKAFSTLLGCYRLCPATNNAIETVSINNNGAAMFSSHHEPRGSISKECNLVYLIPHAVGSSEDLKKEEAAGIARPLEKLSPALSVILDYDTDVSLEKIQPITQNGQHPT

| SMILES | Ki [1] | Kd [2] |
| --- | --- | --- |
| OCCN1CCN(CC/C=C2/c3ccccc3Sc3ccc(C(F)(F)F)cc32)CC1 [cis-flupenthixol] | 5.6 nM | 1.6 nM |
| CNC[C@H](O)c1ccc(O)c(O)c1 [epinephrine] | – | > 55000 nM |
| NCCc1c[nH]c2ccc(O)cc12 [serotonin] | – | > 15000 nM |
